According to patent publication US20260384421A1, “NOVEL COMPOUNDS THAT CAN BE USED AS THERAPEUTIC AGENTS” (published 2026):
Where two headings read alike, the source gives them in different places.

How the values were obtained:
[1] = test system: SW-1353 cells; test: alamarBlue proliferation assay with SW-1353 cells (glucose-free L-15 medium); conditions: read-out: Activity on SW-1353: IC50, Leibovitz's L-15 medium, 10% FBS, 0% CO2
[2] = test system: mitochondrial transmembrane potential Δψm in A-549 cells; test: mitochondrial activity assay (TMRE staining, mitochondrial transmembrane potential) on A-549 cells; conditions: A-549 cells, compounds at 10 μM, 2 h 40 min, TMRE staining, relative to DMSO = 1.0
[3] = test system: HPEKp cells; test: proliferation assay with human epidermal keratinocyte progenitors (HPEKp), selectivity versus MDA-MB-231
[4] = read-out: Activity (HPEK), HPEK cells (HPEKp), antiproliferative activity, class by IC50
[5] = read-out: Activity (HPEK): antiproliferative activity on HPEK cells, IC50 category, HPEK cells cultivated in CnT-Prime medium

Structure (SMILES)	IC50 [1] [µM]	Activity: relative mitochondrial transmembrane potential Δψm [2]	IC50 [3, 4] [µM]	IC50 [3, 5] [µM]
CN(C)C(=O)c1ccc(CN2CCN(C(=O)c3ccc(Oc4ccc(C5CCC6(CC5)OCCO6)cc4CO)cc3)CC2)cc1	≤ 0.2	Δψm ≤0.7	< 10	–
COC1CCC(c2ccc(Oc3ccc(C(=O)N4CCN(Cc5ccc(C(F)(F)F)cn5)CC4)cc3)c(CO)c2)CC1 (centres unmarked)	–	Δψm ≤0.7	< 10	–
O=C(c1ccc(Oc2ccc(C3CCC4(CC3)OCCO4)cc2CO)cc1)N1CCN(Cc2ccccc2Cl)CC1	≤ 0.2	Δψm ≤0.7	–	< 5
COC1CCC(c2ccc(Oc3ccc(C(=O)N4CCN(Cc5ccc(Cl)cc5)CC4)cc3)c(CO)c2)CC1 (centres unmarked)	–	–	< 10	–
COC1CCC(c2ccc(Oc3ccc(C(=O)N4CCN(Cc5ccc(OCC(F)(F)F)cc5)CC4)cc3)c(CO)c2)CC1 (centres unmarked)	–	Δψm ≤0.7	< 5	–
COC1CCC(c2ccc(Oc3ccc(C(=O)N4CCN(Cc5cnc6ccccc6c5)CC4)nc3)c(CO)c2)CC1 (centres unmarked)	–	–	< 10	–
O=C(c1ccc(Oc2ccc(C3CCC4(CCCO4)CC3)cc2CO)cc1)N1CCN(Cc2ccccc2)CC1 (centres unmarked)	≤ 0.2	Δψm ≤0.7	–	–
COc1ccc(CN2CCN(C(=O)c3ccc(Oc4ccc(C5CCCCC5)cc4CO)cc3)CC2)cc1	–	–	< 5	–
O=C(c1ccc(Oc2ccc(C3CCC4(CC3)OCCCO4)cc2CO)cc1)N1CCN(Cc2ccccc2)CC1	≤ 0.2	Δψm ≤0.7	–	< 5
O=C(c1ccc(Oc2ccc(C3CCC4(CC3)OCCO4)cc2CO)cc1)N1CCN(Cc2ccoc2)CC1	≤ 0.2	Δψm ≤0.7	–	> 10
COC1CCC(c2ccc(Oc3ccc(C(=O)N4CCN(Cc5ccc(OC(F)(F)F)cc5)CC4)cc3)c(CO)c2)CC1 (centres unmarked)	–	Δψm ≤0.7	< 10	–
O=C(c1ccc(Oc2ccc(C3CCC4(CC3)OCCO4)cc2CO)cc1)N1CC2CN(Cc3ccc(Cl)cc3)CC2C1 (centres unmarked)	≤ 0.2	Δψm ≤0.7	< 10	–
O=C(c1ccc(Oc2ccc(C3CCC4(CC3)SCCCS4)cc2CO)cn1)N1CCN(Cc2ccc(Cl)cc2)CC1	–	–	< 5	–
O=C(c1ccc(Oc2ccc(C3CCC4(CC3)OCCO4)cc2CO)cc1)N1CCN(Cc2cccs2)CC1	≤ 0.2	Δψm ≤0.7	–	< 10
COc1ccc(CN2CCN(C(=O)c3ccc(Oc4ccc(C5CCC(OC)CC5)cc4CO)cn3)CC2)cc1 (centres unmarked)	–	–	< 10	–
O=C(c1ccc(Oc2ccc(C3CCC4(CC3)OCCO4)cc2CO)cc1)N1CCN(Cc2ccc(O)cc2)CC1	≤ 0.2	Δψm ≤0.7	–	< 5
O=C(c1ccc(Oc2ccc(C3CCCCC3)cc2CO)cc1)N1CCN(Cc2ccc(Cl)cc2)CC1	–	–	< 5	–
COC1CCC(c2ccc(Oc3ccc(C(=O)N4CCN(Cc5ccc(Cl)cn5)CC4)cc3)c(CO)c2)CC1 (centres unmarked)	–	–	< 10	–
COC1CCC(c2ccc(Oc3ccc(C(=O)N4CCN(Cc5ccc(S(F)(F)(F)(F)F)cc5)CC4)cc3)c(CO)c2)CC1 (centres unmarked)	–	Δψm ≤0.7	< 5	–
O=C(c1ccc(Oc2ccc(C3CCC4(CC3)OCCO4)cc2CO)cc1)N1CCN(Cc2ccc(C(F)(F)F)cn2)CC1	≤ 0.2	Δψm ≤0.7	–	< 10
COC1CCC(c2ccc(Oc3ccc(C(=O)N4CCN(Cc5ccc(C(F)(F)F)cc5)CC4)cc3)c(CO)c2)CC1 (centres unmarked)	–	Δψm ≤0.7	< 5	–
COC1CCC(c2ccc(Oc3ccc(C(=O)N4CCN(Cc5ccccc5)CC4)nc3)c(CO)c2)CC1 (centres unmarked)	–	Δψm ≤0.7	< 10	–
COC(=O)c1ccc(CN2CCN(C(=O)c3ccc(Oc4ccc(C5CCC6(CC5)OCCO6)cc4CO)cc3)CC2)cc1	≤ 0.2	Δψm ≤0.7	< 10	–
O=C(c1ccc(Oc2ccc(C3CCC4(CC3)OCCO4)cc2CO)cc1)N1CCCN(Cc2ccc(Cl)cc2)CC1	≤ 0.2	Δψm ≤0.7	–	< 10
COc1ccc(CN2CCN(C(=O)c3ccc(Oc4ccc(C5CCCCC5)cc4CO)cn3)CC2)cc1	–	Δψm ≤0.7	< 5	–
COc1ccc(CN2CCN(C(=O)c3ccc(Oc4ccc(C5CCC(OC)CC5)cc4)cc3)CC2)cc1 (centres unmarked)	–	Δψm ≤0.7	< 10	–

Structure (SMILES)	IC50 [1] [µM]	Activity: relative mitochondrial transmembrane potential Δψm [2]	IC50 [3, 4] [µM]	IC50 [3, 5] [µM]
COC1CCC(c2ccc(Oc3ccc(C(=O)N4CCN(Cc5ccc(C(F)(F)F)cc5)CC4)nc3)c(CO)c2)CC1 (centres unmarked)	–	–	< 5	–
COCC1(COC)CCC(c2ccc(Oc3ccc(C(=O)N4CCN(Cc5ccc(Cl)cc5)CC4)cc3)c(CO)c2)CC1	–	Δψm ≤0.7	< 5	–
COC1CCC(c2ccc(Oc3ccc(C(=O)N4CCN(Cc5ccc(C(F)(F)F)nc5)CC4)cc3)c(CO)c2)CC1 (centres unmarked)	–	Δψm ≤0.7	< 5	–
O=C(c1ccc(Oc2ccc(C3CCC4(CC3)OCCO4)cc2CO)cc1)N1CCN(Cc2ccsc2)CC1	≤ 0.2	Δψm ≤0.7	–	< 10
O=C(c1ccc(Oc2ccc(C3CCC4(CC3)OCCO4)cc2CO)cc1)N1CCN(Cc2ccc([N+](=O)[O-])cc2)CC1	≤ 0.2	Δψm ≤0.7	–	–
Cn1c(CN2CCN(C(=O)c3ccc(Oc4ccc(C5CCC6(CC5)OCCO6)cc4CO)cc3)CC2)cc2ccccc21	≤ 0.2	Δψm ≤0.7	–	< 10
COc1cc(C2CCC(OC)CC2)ccc1Oc1ccc(C(=O)N2CCN(Cc3ccc(Cl)cc3)CC2)cc1 (centres unmarked)	–	Δψm ≤0.7	–	–
CS(=O)(=O)c1ccc(CN2CCN(C(=O)c3ccc(Oc4ccc(C5CCC6(CC5)OCCO6)cc4CO)cc3)CC2)cc1	≤ 0.2	Δψm ≤0.7	–	> 10
O=Cc1cc(C2CCC3(CC2)SCCCS3)ccc1Oc1ccc(C(=O)N2CCN(Cc3ccc(Cl)cc3)CC2)nc1	–	Δψm ≤0.7	–	–
COCC1(COC)CCC(c2ccc(Oc3ccc(C(=O)N4CCN(Cc5ccc(OC)cc5)CC4)cc3)c(CO)c2)CC1	–	Δψm ≤0.7	< 5	–
O=C(c1ccc(Oc2ccc(C3CCC4(CC3)OCCO4)cc2CO)cc1)N1CCN(Cc2ccc(Cl)cc2)CC1	≤ 0.2	Δψm ≤0.7	–	< 10
COc1ccc(CN2CCN(C(=O)c3ccc(Oc4ccc(C5CCC6(CC5)SCCCS6)cc4CO)cn3)CC2)cc1	–	Δψm ≤0.7	< 5	–
O=C(c1ccc(Oc2ccc(C3CCC4(CC3)OCCO4)cc2CO)cc1)N1CCN(Cc2ccc3ccccc3c2)CC1	–	–	–	< 10
CN(C)S(=O)(=O)c1ccc(CN2CCN(C(=O)c3ccc(Oc4ccc(C5CCC6(CC5)OCCO6)cc4CO)cc3)CC2)cc1	≤ 0.2	Δψm ≤0.7	–	< 10
COc1ccc(CN2CCN(C(=O)c3ccc(Oc4ccc(C5CCC6(CC5)OCCO6)cc4CO)cc3)CC2)cn1	≤ 0.2	Δψm ≤0.7	–	< 10
COC1CCC(c2ccc(Oc3ccc(C(=O)N4CCN(Cc5ccc6ccccc6c5)CC4)nc3)c(CO)c2)CC1 (centres unmarked)	–	Δψm ≤0.7	< 5	–
COc1ccc(CN2CCN(C(=O)c3ccc(Oc4ccc(C5CCC(OC)CC5)cc4O)cn3)CC2)cc1 (centres unmarked)	–	Δψm ≤0.7	–	–
COc1ccc(CN2CCN(C(=O)c3ccc(Oc4ccc(C5CCC(OC)CC5)cc4CO)cc3)CC2)cc1 (centres unmarked)	–	–	> 10	–
O=C(c1ccc(Oc2ccc(C3CCC4(CC3)OCCO4)cc2CO)cn1)N1CCN(Cc2ccccc2)CC1	≤ 0.2	Δψm ≤0.7	–	> 10
O=C(c1ccc(Oc2ccc(C3CCC4(CC3)SCCS4)cc2CO)cn1)N1CCN(Cc2ccc(Cl)cc2)CC1	–	Δψm ≤0.7	< 10	–
O=C(c1ccc(Oc2ccc(C3CCC4(CC3)OCCO4)cc2CO)cc1)N1CCN(Cc2ccc(Cl)cn2)CC1	≤ 0.2	Δψm ≤0.7	–	< 10
O=C(c1ccc(Oc2ccc(C3CCC4(CC3)OCCO4)cc2CO)cc1)N1CCN(Cc2ccc(C(F)(F)F)nc2)CC1	≤ 0.2	Δψm ≤0.7	–	< 5
O=C(c1ccc(Oc2ccc(C3CCC4(CC3)OCCO4)cc2CO)cc1)N1CCN(Cc2ccc3oc(=O)ccc3c2)CC1	≤ 0.2	Δψm ≤0.7	–	< 10
O=C(c1ccc(Oc2ccc(C3CCC4(CC3)OCCO4)cc2CO)cc1)N1CCCN(Cc2ccc(C(F)(F)F)cc2)CC1	≤ 0.2	Δψm ≤0.7	–	< 5
O=C(c1ccc(Oc2ccc(C3CCC4(CCCC4)CC3)cc2CO)cc1)N1CCN(Cc2ccccc2)CC1	≤ 0.2	Δψm ≤0.7	–	–
